# Measured values as given in patent publication US20180193365A1, “USE OF HYDROGEN SULFIDE TO PREVENT LENS OPACIFICATION” (Creighton University, priority 2017, published 2018).
# Tested on: superoxide dismutase (SOD) enzyme
# Settings: 50 mM; 120 hours
smiles,measurement,value
"OO [H2O2, hydrogen peroxide]",attenuation of SOD content compared to untreated lenses (time=0 hours),86.59%
